The chains behind the UniProt entries cited, without tags or fusion partners.
UniProt P14416, whole entry: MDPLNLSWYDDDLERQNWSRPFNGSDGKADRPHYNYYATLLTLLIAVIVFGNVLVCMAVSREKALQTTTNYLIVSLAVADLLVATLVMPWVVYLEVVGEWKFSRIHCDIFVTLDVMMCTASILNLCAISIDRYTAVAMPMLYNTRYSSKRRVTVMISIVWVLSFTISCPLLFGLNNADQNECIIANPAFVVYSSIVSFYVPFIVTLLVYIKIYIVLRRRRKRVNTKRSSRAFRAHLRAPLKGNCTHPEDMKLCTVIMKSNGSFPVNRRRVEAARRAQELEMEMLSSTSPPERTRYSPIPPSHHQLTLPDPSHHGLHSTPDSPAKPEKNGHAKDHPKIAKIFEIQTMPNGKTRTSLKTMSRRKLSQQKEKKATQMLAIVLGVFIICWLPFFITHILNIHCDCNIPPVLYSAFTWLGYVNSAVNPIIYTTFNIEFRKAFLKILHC

According to ChEMBL document CHEMBL2163237, “Molecular determinants of selectivity and efficacy at the dopamine D3 receptor” (J Med Chem, 2012):

Biological target: D(2) dopamine receptor (Homo sapiens, UniProt P14416)
Assay: Displacement of [125I]IABN from human D2L receptor expressed in HEK293 cells after 60 mins by gamma counting analysis
Format: cell-based

Ki: 13.6 µM
Structure (SMILES): CCCCNC(=O)c1cc2ccccc2[nH]1
